Only a part is listed here, and it is no random draw. Calls of active or inactive are those of the source.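 How the source made its calls: active means inhibition above the plate cutoff, the mean of all test compounds on that plate plus 3 SD (cut at about 35% in these data); inactive means the rest.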

The assay in a line: binders of r(CAG) RNA repeats, primary screen, biochemical, fluorescence (AID 651821).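 Further: 0% = DMSO alone and 100% = 100 µM mitoxantrone as full dye displacement; higher means more dye released from RNA so lower well fluorescence.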 The conditions noted are these: r(CAG) RNA repeat, TO-PRO-1 dye displacement fluorescence; at 3 µM; stronger effect = higher value.
`CCC(=O)N(c1ccccc1)C1(COC)CCN(CCn2nnn(CC)c2=O)CC1`: the inhibition (as a rule, the relative decrease from the control value, in per cent) is inactive: -1.72%.
Consider `CCC(=O)N(c1ccccc1)C1(COC)CCN(CCc2cccs2)CC1`, for which the inhibition is inactive: -0.56%.

Source of the values: PubChem BioAssay AID651821 (The Scripps Research Institute Molecular Screening Center, 2012).
